Test results reported in patent publication US20230139516A1 (CEDARS SINAI MEDICAL CENTER, published 2023).

Target: T1, receptor-interacting protein kinase 2 (RIPK2), endogenous (human)
T1 construct: Endogenous protein detected in cells with anti-RIPK2 antibodies (PLA, IP)
Assay: proximity ligation assay (PLA) of endogenous proteins in parental HEK293T cells

binding result: no binding
B1: c-Myc (other, human, UniProt P01106-1 1-439, looked up)
chain: MPLNVSFTNRNYDLDYDSVQPYFYCDEEENFYQQQQQSELQPPAPSEDIWKKFELLPTPPLSPSRRSGLCSPSYVAVTPFSLRGDNDGGGGSFSTADQLEMVTELLGGDMVNQSFICDPDDETFIKNIIIQDCMWSGFSAAAKLVSEKLASYQAARKDSGSPNPARGHSVCSTSSLYLQDLSAAASECIDPSVVFPYPLNDSSSPKSCASQDSSAFSPSSDSLLSSTESSPQGSPEPLVLHEETPPTTSSDSEEEQEDEEEIDVVSVEKRQAPGKRSESGSPSAGGHSKPPHSPLVLKRCHVSTHQHNYAAPPSTRKDYPAAKRVKLDSVRVLRQISNNRKCTSPRSSDTEENVKRRTHNVLERQRRNELKRSFFALRDQIPELENNEKAPKVVILKKATAYILSVQAEEQKLISEEDLLRKRREQLKHKLEQLRNSCA
notes: also called c-Myc oncoprotein
